Results from patent US20250108038A1 (priority 2023, published 2025).

Target: T1, OAT3 (Homo sapiens, UniProt Q8TCC7)
T1 sequence (Q8TCC7 1-542): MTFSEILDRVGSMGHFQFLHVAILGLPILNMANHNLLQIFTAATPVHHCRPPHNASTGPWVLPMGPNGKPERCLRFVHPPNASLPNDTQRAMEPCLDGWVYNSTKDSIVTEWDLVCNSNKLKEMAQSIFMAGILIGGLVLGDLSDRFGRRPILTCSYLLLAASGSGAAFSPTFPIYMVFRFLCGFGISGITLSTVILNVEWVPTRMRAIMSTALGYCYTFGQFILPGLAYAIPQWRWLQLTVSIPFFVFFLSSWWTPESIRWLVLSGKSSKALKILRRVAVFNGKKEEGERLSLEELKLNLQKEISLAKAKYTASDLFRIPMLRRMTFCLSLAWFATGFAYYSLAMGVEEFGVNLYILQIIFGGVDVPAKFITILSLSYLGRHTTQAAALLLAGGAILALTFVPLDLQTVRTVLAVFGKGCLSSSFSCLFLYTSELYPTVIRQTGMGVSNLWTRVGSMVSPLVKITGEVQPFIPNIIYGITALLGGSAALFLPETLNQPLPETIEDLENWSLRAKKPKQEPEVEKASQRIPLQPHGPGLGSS
Test: Uptake transporter inhibition assay, OAT3 (estrone-3-sulfate)
Conditions: 500.00 μM nominal; E3S; Table 130

## CCCN(CCC)S(=O)(=O)c1ccc(C(=O)O)cc1 [Probenecid]
  Relative transporter specific accumulation: 2.73 ± 0.16 % of control
